In patent US20240408054A1, “COMPOSITIONS AND METHODS FOR […] OF R(-)-MDA” (priority 2023, published 2024):

Assay: Phase 1 clinical study: safety and tolerability
Details: highest dose (225 mg)

CN[C@H](C)Cc1ccc2c(c1)OCO2 [R(−)-MDMA]
Bruxism: observed in a single subject
